Curated experimental data: fraction unbound values

fu is the fraction unbound in human plasma, from 0 to 1.

| compound | fraction unbound |
|---|---|
| CCCCC(O)(Cn1cncn1)c1ccc(Cl)cc1Cl (configuration not stated) | 0.04083 |
| COC(=O)NS(=O)(=O)c1ccc(N)cc1 | 0.456 |
| ClC1=C(Cl)C2(Cl)C3C(Cl)C=CC3C1(Cl)C2(Cl)Cl (configuration not stated) | 0.04333 |
| COCC(C)N(C(=O)CCl)c1c(C)csc1C (configuration not stated) | 0.2316 |
| COc1cc2O[C@H]3OC=C[C@H]3c2c2OC(=O)C3=C(CCC3=O)c12 | 0.458 |
| CN1CC[C@]23c4c5ccc(OCCN6CCOCC6)c4O[C@H]2[C@@H](O)C=C[C@H]3[C@H]1C5 | 0.76 |
| Cc1nc(N(C)C)nc(OC(=O)N(C)C)c1C | 0.1626 |
| O=C(O)C(F)(F)C(F)(F)C(F)(F)C(F)(F)C(F)(F)C(F)(F)C(F)(F)C(F)(F)C(F)(F)F | 0.00142 |
| Nc1ccc2ccccc2c1 | 0.1099 |
| Nc1ccc(/N=N/c2ccccc2)cc1 | 0.0171 |
| Nc1ccc(-c2ccc(N)cc2)cc1 | 0.1977 |
| CC[C@@H](C(N)=O)N1CCCC1=O | 0.9167 |
| CC(C)N(C(=O)COc1nnc(C(F)(F)F)s1)c1ccc(F)cc1 | 0.1376 |
| CNc1cnn(-c2cccc(C(F)(F)F)c2)c(=O)c1Cl | 0.1833 |
| C[C@@H]1O[C@@H](O[C@@H]2C=C3CC[C@@H]4[C@H](CC[C@]5(C)[C@@H](c6ccc(=O)oc6)CC[C@]45O)[C@@]3(C)CC2)[C@H](O)[C@H](O)[C@H]1O | 0.15 |
| CCOP(=S)(OCC)SCSCC | 0.0129 |
| CC#Cc1cc(C)nc(Nc2ccccc2)n1 | 0.03419 |
| ClC(Cl)=C(Cl)Cl | 0.2463 |
| COCC(=O)N(c1c(C)cccc1C)C(C)C(=O)OC (configuration not stated) | 0.7308 |
| CS(=O)(=O)c1ccc(C(=O)C2C(=O)CCCC2=O)c(Cl)c1COCC(F)(F)F | 0.0919 |
| CN(C)C(=O)Nc1cccc(C(F)(F)F)c1 | 0.2592 |
| CCCOC(=O)Cc1ccc(OCC(=O)N(CC)CC)c(OC)c1 | 0.25 |
| CCOC1Oc2ccc(OS(C)(=O)=O)cc2C1(C)C (configuration not stated) | 0.1309 |
| CNC(=O)ON=CC(C)(C)SC | 0.4808 |
| CCCCNC(=O)OCC#CI | 0.719 |
| C=CCC1(C(C)CCC)C(=O)NC(=O)NC1=O (configuration not stated) | 0.5 |
| CC(C)(C)C(=O)C(Oc1ccc(Cl)cc1)n1cncn1 (configuration not stated) | 0.1038 |
| CC(Oc1cccc(Cl)c1)C(=O)O (configuration not stated) | 0.02173 |
| Cc1ccccc1O | 0.38 |
| CCNc1nc(Cl)nc(NC(C)(C)C#N)n1 | 0.3166 |
| Cc1nnc(-c2ccccc2)c(=O)n1N | 0.693 |
| Cc1ccc([N+](=O)[O-])cc1 | 0.2659 |

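The numbers are reported measurements, compiled and curated for the OPERA QSAR suite. A listed value is a point estimate from one report or more. Method and conditions are not stated for these values. Where a salt, mixture or single isomer is drawn, the source does not say that exactly this form was tested. Some entries may be limits or estimates that an upstream database listed as plain numbers.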

Source: data files of OPERA 2.9 (Mansouri et al.), github.com/kmansouri/OPERA.